{"sequences": {"note": "Amino acid sequences for entries named in this document (tags omitted). A change or cut given only in a name is not applied to a line headed by its entry.", "UniProt Q96RJ0": "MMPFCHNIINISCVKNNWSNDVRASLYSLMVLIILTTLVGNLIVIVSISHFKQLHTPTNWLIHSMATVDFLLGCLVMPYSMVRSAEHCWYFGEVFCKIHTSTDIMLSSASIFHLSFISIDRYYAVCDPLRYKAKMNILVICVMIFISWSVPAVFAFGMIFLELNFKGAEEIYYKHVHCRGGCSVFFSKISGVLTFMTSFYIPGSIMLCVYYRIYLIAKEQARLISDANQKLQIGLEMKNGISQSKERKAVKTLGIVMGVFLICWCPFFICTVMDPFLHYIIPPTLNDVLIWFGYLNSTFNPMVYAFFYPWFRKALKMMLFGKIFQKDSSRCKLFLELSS"}, "source": "paper PMC10762035", "about": "“Molecular basis of human trace amine-associated receptor 1 activation” (Nature Communications, 2024)", "target": "T1, hTA1 C5S (Homo sapiens, UniProt Q96RJ0, C5S)", "T1 construct": "expressed in transfected cells; host or cells: HEK293T", "T1 sequence (Q96RJ0 1-339 C5S)": "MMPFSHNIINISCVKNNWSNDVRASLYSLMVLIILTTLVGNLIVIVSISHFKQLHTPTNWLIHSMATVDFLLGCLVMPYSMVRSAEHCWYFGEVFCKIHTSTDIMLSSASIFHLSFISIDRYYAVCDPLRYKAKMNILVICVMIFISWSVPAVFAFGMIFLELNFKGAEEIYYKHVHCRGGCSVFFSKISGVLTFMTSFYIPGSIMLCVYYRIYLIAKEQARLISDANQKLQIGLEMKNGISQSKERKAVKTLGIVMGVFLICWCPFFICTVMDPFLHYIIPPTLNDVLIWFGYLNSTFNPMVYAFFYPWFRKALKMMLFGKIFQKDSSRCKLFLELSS", "experiment": "GloSensor cAMP accumulation assay, C5S mutant", "format": "cell-based", "note": "“And” between values parts separate entries of the source, which are not always exact repeats. Identical values can stand only once. Like-named read-outs stand apart in the source and are kept apart here."}
{"compound": "CCc1[nH]nc(C(=O)Nc2ccc([C@H]3CNCCO3)cc2)c1C", "note": "[ralmitaront]", "values": [{"measurement": "EC50", "setting": "C5S, n=2, read-out: EC50", "value": 168, "unit": "nM"}, {"measurement": "EC50", "setting": "hTA1 C5S, mean of 3 replicates, one line per independent experiment, read-out: pEC50 values, Mean (converted)", "value": "215 nM and 131 nM"}]}
